This is an account of results in patent publication US8901115B2, “Cyclic P1 linkers as factor XIa inhibitors” (Bristol-Myers Squibb Company, priority 2011, dated 2014).

The chains behind the UniProt entries cited, without tags or fusion partners. Residues count along the entry.
UniProt P03951, 19-387 partner: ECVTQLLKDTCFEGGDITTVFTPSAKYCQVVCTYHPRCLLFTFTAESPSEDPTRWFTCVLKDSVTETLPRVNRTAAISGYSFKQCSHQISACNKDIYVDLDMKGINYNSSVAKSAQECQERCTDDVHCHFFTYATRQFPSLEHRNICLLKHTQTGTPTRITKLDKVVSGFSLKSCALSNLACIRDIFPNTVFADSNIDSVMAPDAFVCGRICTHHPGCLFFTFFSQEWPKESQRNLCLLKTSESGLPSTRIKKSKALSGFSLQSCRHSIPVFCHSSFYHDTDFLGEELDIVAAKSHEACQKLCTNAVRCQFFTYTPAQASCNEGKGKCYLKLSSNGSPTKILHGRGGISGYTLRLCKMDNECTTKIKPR
UniProt P03951, 388-625: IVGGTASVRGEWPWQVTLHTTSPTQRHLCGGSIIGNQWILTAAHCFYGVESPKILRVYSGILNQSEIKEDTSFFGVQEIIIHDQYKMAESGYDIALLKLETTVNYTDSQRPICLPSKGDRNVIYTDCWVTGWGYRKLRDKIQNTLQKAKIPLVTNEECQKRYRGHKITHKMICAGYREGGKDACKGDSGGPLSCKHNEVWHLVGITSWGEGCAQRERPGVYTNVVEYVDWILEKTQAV

In the experiment the target is purified human Factor XIa (Homo sapiens (Human), UniProt P03951). The experiment can be described thus: Factor XIa enzyme inhibition assay (chromogenic substrate S-2366). The format is biochemical. The note with it: substrate S-2366, 50 mM HEPES pH 7.4. The protocol:
The effectiveness of compounds of the present invention as inhibitors of the coagulation Factors XIa, VIIa, IXa, Xa, XIIa, plasma kallikrein or thrombin, can be determined using a relevant purified serine protease, respectively, and an appropriate synthetic substrate. The rate of hydrolysis of the chromogenic or fluorogenic substrate by the relevant serine protease was measured both in the absence and presence of compounds of the present invention. Assays were conducted at room temperature or at 37° C. […] A decrease in the rate of absorbance or fluorescence change in the presence of inhibitor is indicative of enzyme inhibition. Such methods are known to one skilled in the art. The results of this assay are expressed as the inhibitory constant, Ki.
Values of Ki were determined by allowing the protease to react with the substrate in the presence of the inhibitor. Reactions were allowed to go for periods of 20-180 minutes (depending on the protease) and the velocities (rate of absorbance or fluorescence change versus time) were measured. The following relationships were used to calculate Ki values: (vo−vs)/vs=I/(Ki(1+S/Km)) for a competitive inhibitor with one binding site; or vs/vo=A+((B−A)/(1+((IC50/(I))^n))); and Ki=IC50/(1+S/Km) for a competitive inhibitor where: […]

Structures are written as SMILES.

Turning to `COC(=O)Nc1ccc2c(c1)NC(=O)CC/C=C/C[C@H](N1CCN(c3cccc(Cl)c3)C(C)C1=O)c1nc-2c[nH]1` (single isomer, unassigned) [Example 158], the Ki – broadly, a measure of affinity in units of concentration, obtained from inhibition or displacement – was 984 nM.
